From patent US8969358B2, “Buprenorphine analogs” (dated 2015) come the findings set out here.

Amino acid sequences for entries named in this document (tags omitted).
UniProt P41145, whole entry: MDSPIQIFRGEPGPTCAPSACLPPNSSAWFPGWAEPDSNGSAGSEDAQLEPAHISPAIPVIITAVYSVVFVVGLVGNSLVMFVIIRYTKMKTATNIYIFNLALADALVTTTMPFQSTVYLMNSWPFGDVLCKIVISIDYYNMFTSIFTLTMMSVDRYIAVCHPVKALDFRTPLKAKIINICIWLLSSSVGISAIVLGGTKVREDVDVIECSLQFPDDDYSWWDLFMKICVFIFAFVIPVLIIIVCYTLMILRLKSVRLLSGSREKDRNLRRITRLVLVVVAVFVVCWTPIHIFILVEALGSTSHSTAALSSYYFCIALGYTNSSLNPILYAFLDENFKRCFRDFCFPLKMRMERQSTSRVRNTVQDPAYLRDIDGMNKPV
UniProt P35372, whole entry: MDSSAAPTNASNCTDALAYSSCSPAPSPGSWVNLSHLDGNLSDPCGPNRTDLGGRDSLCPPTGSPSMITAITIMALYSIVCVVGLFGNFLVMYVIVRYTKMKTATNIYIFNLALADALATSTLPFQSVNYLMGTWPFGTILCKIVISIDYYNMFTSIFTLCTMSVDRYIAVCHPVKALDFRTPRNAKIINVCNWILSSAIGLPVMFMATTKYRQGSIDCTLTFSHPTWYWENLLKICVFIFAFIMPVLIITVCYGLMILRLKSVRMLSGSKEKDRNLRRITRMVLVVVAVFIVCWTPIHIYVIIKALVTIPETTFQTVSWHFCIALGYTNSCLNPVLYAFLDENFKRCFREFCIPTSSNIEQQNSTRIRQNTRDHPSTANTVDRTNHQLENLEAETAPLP

Assay [1] deals with T1, κ opioid receptor (Homo sapiens (Human), UniProt P41145). Nature of the assay: κ-opioid receptor [35S]GTPγS functional assay. Conditions: for EC50: read-out: GTPγS κ EC50; for GTPγS κ Emax: relative to the effect elicited by U69,593. For orientation: Binding of GTPγS marks nucleotide exchange on a G protein.
In assay [2] the target is μ-opioid receptor (Homo sapiens (Human), UniProt P35372). Nature of the assay: μ-opioid receptor [35S]GTPγS functional assay. Conditions: for EC50: read-out: GTPγS μ EC50; for GTPγS μ Emax: relative to the effect elicited by DAMGO.
Assay [3] has as its target δ opioid receptor (Homo sapiens (Human), UniProt P41143). Nature of the assay: δ-opioid receptor [35S]GTPγS functional assay. To be noted: for EC50: read-out: GTPγS δ EC50; for GTPγS δ Emax: relative to the effect elicited by met-enkephalin.
Assay [4] concerns the target T1, κ opioid receptor. Description: κ-opioid receptor radioligand dose displacement binding assay ([3H]-U69,593). To be noted: read-out: Ki κ; binding affinity.

Where two headings read alike, the source gives them in different places.

In the case of `CO[C@]12CC[C@@]3(C[C@@H]1CNC(=O)[C@@H](N)CC(=O)O)[C@H]1Cc4ccc(O)c5c4[C@@]3(CCN1CC1CC1)[C@H]2O5`, the values for the EC50 in assay [1], in assay [2] (bound given in μM) and in assay [3] were 0.0488 µM, > 20 µM and 0.0216 µM, respectively. Also, the “GTPγS κ Emax” value in assay [1] worked out at 32.67%. In addition, in assay [2], the “GTPγS μ Emax” value is reported as −1.00%. Besides, the “GTPγS δ Emax” value in assay [3] worked out at 38.00%.
Turning to `CO[C@]12CC[C@@]3(C[C@@H]1CNS(=O)(=O)c1ccc(C)cc1)[C@H]1Cc4ccc(O)c5c4[C@@]3(CCN1CC1CC1)[C@H]2O5`, in assay [1], the EC50 (commonly the concentration at which the effect is half-maximal) worked out at 0.00236 µM and the “GTPγS κ Emax” value was found to be 20.75%. Also, in assay [2], the EC50 turned out to be 0.00344 µM and the “GTPγS μ Emax” value stood at 12.00%.
For `COC12CC[C@@]3(C[C@@H]1CNC(=O)c1ccccc1C(=O)O)[C@H]1Cc4ccc(O)c5c4[C@@]3(CCN1CC1CC1)[C@H]2O5`, in assay [1], the EC50 was 0.00975 µM and the “GTPγS κ Emax” value turned out to be 40.25%. Further, in assay [2], the EC50 is 0.00651 µM and the “GTPγS μ Emax” value is listed as 23.75%. Besides, in assay [3], the EC50 was 0.00571 µM and the “GTPγS δ Emax” value turned out to be 76.67%.
In the case of `COC12CC[C@@]3(C[C@@H]1CNC(=O)Nc1ccccc1)[C@H]1Cc4ccc(O)c5c4[C@@]3(CCN1CC1CC1)[C@H]2O5`, in assay [1], the EC50 came out at 0.00094 µM and the “GTPγS κ Emax” value was found to be 33.00%. Besides, in assay [2], the 50% effective concentration (EC50) stood at 0.00052 µM and the “GTPγS μ Emax” value was found to be 67.67%.
As to `CO[C@]12CC[C@@]3(C[C@@H]1CNC(=O)c1c[nH]c4ccccc14)[C@H]1Cc4ccc(O)c5c4[C@@]3(CCN1CC1CC1)[C@H]2O5`, in assay [1], the EC50 came to 0.00167 µM and the “GTPγS κ Emax” value was 14.67%. In addition, in assay [2], the concentration for a half-maximal effect (EC50) worked out at 0.00141 µM and the “GTPγS μ Emax” value was determined as 33.50%. In addition, the inhibition constant (Ki) (as a rule, a measure of affinity in units of concentration, obtained from inhibition or displacement) in assay [4] worked out at 0.11 nM.
As for `CO[C@]12CC[C@@]3(C[C@@H]1CNC(=O)[C@@H](N)Cc1ccc(O)cc1)[C@H]1Cc4ccc(O)c5c4[C@@]3(CCN1CC1CC1)[C@H]2O5`, the EC50 in assay [1] is 0.00437 µM; in assay [2] (bound given in μM) it was > 20 µM.
With `CO[C@]12CC[C@@]3(C[C@@H]1CNC(=O)[C@@H](N)Cc1ccccc1)[C@H]1Cc4ccc(O)c5c4[C@@]3(CCN1CC1CC1)[C@H]2O5`, the EC50 was 0.0006 µM in assay [1], > 20 µM in assay [2] (bound given in μM) and > 20 µM in assay [3] (bound given in μM). The “GTPγS κ Emax” value in assay [1] stood at 49.00%.
Turning to `CO[C@]12CC[C@@]3(C[C@@H]1CNS(=O)(=O)C(F)(F)F)[C@H]1Cc4ccc(O)c5c4[C@@]3(CCN1CC1CC1)[C@H]2O5`, in assay [1], the EC50 was determined as 0.00295 µM and the “GTPγS κ Emax” value was found to be 28.33%. Also, in assay [2], the EC50 stood at 0.00185 µM and the “GTPγS μ Emax” value was 39.50%.
For `CO[C@]12CC[C@@]3(C[C@@H]1CNS(C)(=O)=O)[C@H]1Cc4ccc(O)c5c4[C@@]3(CCN1CC1CC1)[C@H]2O5`, in assay [1] (bound given in μM), the EC50 was > 20 µM. Also, in assay [2], the EC50 was 0.00242 µM and the “GTPγS μ Emax” value was found to be 12.00%.
With `COC12CC[C@@]3(C[C@@H]1CNC(=O)CCCCC(N)=O)[C@H]1Cc4ccc(O)c5c4[C@@]3(CCN1CC1CC1)[C@H]2O5`, the EC50 in assay [1] (bound given in μM) is > 20 µM; in assay [2], 0.00469 µM. The “GTPγS κ Emax” value in assay [1] was −0.33%. In addition, the “GTPγS μ Emax” value in assay [2] came out at 16.25%.
With `COC12CC[C@@]3(C[C@@H]1CNC(=O)Nc1cccc(C)c1)[C@H]1Cc4ccc(O)c5c4[C@@]3(CCN1CC1CC1)[C@H]2O5`, in assay [1], the EC50 amounted to 0.00163 µM and the “GTPγS κ Emax” value is recorded as 35.00%. In assay [2], the EC50 was found to be 0.0013 µM and the “GTPγS μ Emax” value turned out to be 34.75%.
On to `CO[C@]12CC[C@@]3(C[C@@H]1CNC(=O)[C@@H](N)Cc1c[nH]cn1)[C@H]1Cc4ccc(O)c5c4[C@@]3(CCN1CC1CC1)[C@H]2O5`, for which the values for the concentration giving a half-maximal response (EC50) in assay [1], in assay [2] and in assay [3] (bound given in μM) were 0.00163 µM, 6.45 µM and > 20 µM, respectively. The “GTPγS κ Emax” value in assay [1] is on record as 35.00%. For the same compound, in assay [2], the “GTPγS μ Emax” value came to 18.25%.
`CO[C@]12CC[C@@]3(C[C@@H]1CNC(=O)[C@H](Cc1ccccc1)NC(C)=O)[C@H]1Cc4ccc(O)c5c4[C@@]3(CCN1CC1CC1)[C@H]2O5`: in assay [1] (bound given in μM), the EC50 is > 20 µM. Besides, the “GTPγS κ Emax” value in assay [1] is listed as −1.00%. In assay [2], the concentration for a half-maximal effect (EC50) is 0.0298 µM and the “GTPγS μ Emax” value amounted to 9.60%.
On to `CO[C@]12CC[C@@]3(C[C@@H]1CNS(=O)(=O)c1ccccc1)[C@H]1Cc4ccc(O)c5c4[C@@]3(CCN1CC1CC1)[C@H]2O5`, for which, in assay [1], the EC50 came out at 0.00128 µM and the “GTPγS κ Emax” value is 17.75%. Also, in assay [2], the EC50 was determined as 0.00082 µM and the “GTPγS μ Emax” value is reported as 34.25%.
In the case of `CO[C@]12CC[C@@]3(C[C@@H]1CNC(=O)[C@H](CO)NC(C)=O)[C@H]1Cc4ccc(O)c5c4[C@@]3(CCN1CC1CC1)[C@H]2O5`, the values for the EC50 in assay [1], in assay [2] (bound given in μM) and in assay [3] (bound given in μM) were 0.00264 µM, > 20 µM and > 20 µM, respectively. In addition, the “GTPγS κ Emax” value in assay [1] amounted to 38.00%. Further, in assay [3], the “GTPγS δ Emax” value turned out to be 0.50 ± 0.50%.
Regarding `CO[C@]12CC[C@@]3(C[C@@H]1CNC(=O)CN)[C@H]1Cc4ccc(O)c5c4[C@@]3(CCN1CC1CC1)[C@H]2O5`, the EC50 in assay [1] is 0.0038 µM; in assay [2] (bound given in μM), > 20 µM; in assay [3], 0.00337 µM. The “GTPγS κ Emax” value in assay [1] came to 43.00%. In addition, the “GTPγS δ Emax” value in assay [3] is 55.67%.
